{"sequences": {"note": "The chains behind the UniProt entries cited, without tags or fusion partners. Residues count along the entry.", "UniProt P37173, 23-166": "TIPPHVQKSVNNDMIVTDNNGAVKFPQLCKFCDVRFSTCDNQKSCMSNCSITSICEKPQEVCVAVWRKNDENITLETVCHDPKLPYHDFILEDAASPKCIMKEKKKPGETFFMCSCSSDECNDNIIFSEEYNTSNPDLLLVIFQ"}, "source": "paper PMC5551644", "key": {"[1]": {"biological_target": "TGF-β2/BGO complex (human | rat) (UniProt P26342)", "experiment": "SPR"}, "[2]": {"biological_target": "TGF-β2/BG_(O-ZP) complex (human | rat) (UniProt P26342)", "experiment": "SPR"}, "[3]": {"biological_target": "T1, TGF-β2TM, variant of TGF-β2 bearing K25R, I92V, and K94R substitutions (human)", "T1 sequence (P61812 303-414 with K25R I92V K94R, looked up)": "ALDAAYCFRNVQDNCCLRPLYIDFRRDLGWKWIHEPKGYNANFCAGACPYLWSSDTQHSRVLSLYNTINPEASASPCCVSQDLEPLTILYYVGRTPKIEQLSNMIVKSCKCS", "experiment": "SPR"}, "[4]": {"biological_target": "TGF-β2TM/BGO complex (human | rat) (UniProt P26342)", "experiment": "SPR"}, "[5]": {"biological_target": "TGF-β2TM/BG_(O-ZP) binary complex (human | rat) (UniProt P26342)", "experiment": "SPR"}, "[6]": {"biological_target": "TGF-β2TM/BG_(O-ZP) binary complex (human | rat) (UniProt P26342)", "experiment": "ITC"}, "[7]": {"biological_target": "T1, TGF-β2TM, variant of TGF-β2 bearing K25R, I92V, and K94R substitutions (human)", "experiment": "SEC-MALS"}, "[8]": {"biological_target": "T1, TGF-β2TM, variant of TGF-β2 bearing K25R, I92V, and K94R substitutions (human)", "experiment": "SEC"}, "[9]": {"biological_target": "T1, TGF-β2TM, variant of TGF-β2 bearing K25R, I92V, and K94R substitutions (human)", "experiment": "SPR", "remark": "listed apart in the source"}, "[10]": {"biological_target": "T1, TGF-β2TM, variant of TGF-β2 bearing K25R, I92V, and K94R substitutions (human)", "experiment": "SPR", "remark": "listed apart in the source"}}, "note": "Like-named read-outs stand apart in the source and are kept apart here."}
{"substance": "TGF-β type II receptor extracellular domain (from UniProt P37173 23-166)", "values": [{"measurement": "Kd", "setting": "[1]", "result": 130, "unit": "nM"}, {"measurement": "Kd", "setting": "[2]", "result": 1070, "unit": "nM"}, {"measurement": "Kd", "setting": "[3]", "result": 148, "unit": "nM"}, {"measurement": "Kd", "setting": "[4]", "result": 30, "unit": "nM"}, {"measurement": "Kd", "setting": "[5]", "result": 43, "unit": "nM"}, {"measurement": "Kd", "setting": "[6]", "result": 510, "unit": "nM"}, {"measurement": "dH", "setting": "[6]", "result": -29.3, "unit": "kJ mol^–1"}, {"measurement": "stoichiometry N", "setting": "[6]", "result": 1.04, "unit": "sites"}, {"measurement": "stoichiometry N (TβRII per TGF-β2TM homodimer)", "setting": "[7]", "result": 2}, {"measurement": "stoichiometry N (TβRII per TGF-β2TM homodimer)", "setting": "[8]", "result": 2}, {"measurement": "Kd", "setting": "[9]", "result": 129, "unit": "nM"}, {"measurement": "Kd", "setting": "[10]", "result": 145, "unit": "nM"}]}
